Values quoted from earlier work as cited in patent US20150359807A1, “Dietary Supplement Containing Vitamin A, D3 and Vitamin K2 and Uses Thereof” (Supernutrition Life-Extension Research, Inc., priority 2014, published 2015).

Conditions: almost all adults, 21 studies

Substance: vitamin D
- vitamin D intake shown to be safe for long-term use: ≤ 10,000 IU per day
